# Several values for one entry are separate records, joined by “and”; a condition that tells them apart may be missing. Equal values may be shown once. The entries are a selection whose mix differs from that of the whole data set.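 Cell lines were cultured in 96-well plates, exposed to a single compound concentration, and assessed for percent growth 48 hours later.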 Activity calls are given as the source filed them. The calls were made as follows: active = growth percent below 10; inactive = the rest.
# Key:
# Experiment in all cases: NCI-60 one-dose screen, 48 h (100 = growth as untreated, 0 = no growth, -100 = all killed)
# Conditions in all cases: 10 µM unless noted
# NCI-H23 lung = test system: NCI-H23 lung
# NCI-H226 lung = test system: NCI-H226 lung
# NCI-H322M lung = test system: NCI-H322M lung
# HOP-62 NSCLC = test system: HOP-62 NSCLC
# NCI-H460 lung = test system: NCI-H460 lung
# HOP-92 NSCLC = test system: HOP-92 NSCLC
# NCI-H522 lung = test system: NCI-H522 lung
# A549/ATCC NSCLC = test system: A549/ATCC NSCLC
# 786-0 renal = test system: 786-0 renal
# COLO 205 colon = test system: COLO 205 colon
# DU-145 prostate = test system: DU-145 prostate
# K-562 leukemia = test system: K-562 leukemia
# MALME-3M melanoma = test system: MALME-3M melanoma
# MDA-MB-231 breast = test system: MDA-MB-231 breast
# RXF 393 renal = test system: RXF 393 renal
# SF-268 CNS = test system: SF-268 CNS
# SF-295 CNS = test system: SF-295 CNS
# SF-539 CNS = test system: SF-539 CNS
# UACC-257 melanoma = test system: UACC-257 melanoma
# M14 melanoma = test system: M14 melanoma
Structure (SMILES),growth (NCI-H23 lung),growth (NCI-H226 lung),growth (NCI-H322M lung),growth (HOP-62 NSCLC),growth (NCI-H460 lung),growth (HOP-92 NSCLC),growth (NCI-H522 lung),growth (A549/ATCC NSCLC),growth (786-0 renal),growth (COLO 205 colon),growth (DU-145 prostate),growth (K-562 leukemia),growth (MALME-3M melanoma),growth (MDA-MB-231 breast),growth (RXF 393 renal),growth (SF-268 CNS),growth (SF-295 CNS),growth (SF-539 CNS),growth (UACC-257 melanoma),growth (M14 melanoma)
CN(CCCl)/N=N/c1nc2c([nH]1)c(=O)n(C)c(=O)n2C,inactive: 94.9%,inactive: 106%,inactive: 96.7%,inactive: 88.5%,inactive: 111%,inactive: 106%,inactive: 77.2%,inactive: 98.5%,inactive: 85.9%,inactive: 105%,inactive: 110%,inactive: 89.4%,inactive: 97%,inactive: 108%,inactive: 136%,inactive: 103%,inactive: 98.2%,inactive: 87.3%,inactive: 104%,inactive: 93.4%
O=C(O[C@H]1CN2CCC1CC2)C1NCc2ccccc2[C@@H]1c1ccccc1 (stereo not given in full),inactive: 99.8%,inactive: 92.6%,inactive: 95.1%,inactive: 95.6%,inactive: 113%,inactive: 92.6%,inactive: 91.9%,inactive: 104%,inactive: 84.3%,inactive: 92.4%,inactive: 115%,inactive: 84.2%,inactive: 108%,inactive: 96.9%,inactive: 101%,inactive: 110%,inactive: 103%,inactive: 98%,inactive: 103%,inactive: 95.1%
COc1cc([N+](=O)[O-])c(Nc2ccc(Cl)cc2[N+](=O)[O-])c([N+](=O)[O-])c1,inactive: 39%,inactive: 80.3%,inactive: 70%,inactive: 56.2%,inactive: 43.5%,inactive: 85.9%,active: -67.8%,inactive: 61.6%,inactive: 86%,inactive: 66.2%,inactive: 34.9%,inactive: 46.1%,inactive: 81.4%,inactive: 83.3%,inactive: 13.1%,inactive: 80.5%,inactive: 75.7%,inactive: 64.8%,inactive: 71.2%,inactive: 82.4%
Cc1ccc(S(=O)(=O)n2cc([C@@]3(O)C[C@H](CC#N)OC3=O)c3ccccc32)cc1,inactive: 27.2%,active: 5.51%,inactive: 38.4%,inactive: 26%,active: 0.08%,active: -39.2%,inactive: 21.8%,inactive: 15.6%,inactive: 17.8%,active: 5.25%,active: -48.5%,active: -2.96%,inactive: 22.8%,active: -10.3%,inactive: 12.8%,inactive: 26.9%,active: -45.1%,active: -27.7%,inactive: 75.9%,inactive: 20.3%
O=[N+]([O-])c1cc(Cl)c(O)c([N+](=O)[O-])c1,inactive: 111%,inactive: 89.2%,inactive: 108%,inactive: 92.3%,inactive: 105%,inactive: 87.6%,inactive: 98.7%,inactive: 82%,inactive: 99%,inactive: 107%,inactive: 110%,inactive: 98.1%,inactive: 111%,inactive: 96.9%,inactive: 108%,inactive: 101%,inactive: 103%,inactive: 107%,inactive: 81.7%,inactive: 103%
O=C(CBr)c1ccc([N+](=O)[O-])cc1,inactive: 104%,inactive: 108%,inactive: 87.5%,inactive: 102%,inactive: 114%,inactive: 80.3%,inactive: 80.3%,inactive: 107%,inactive: 110%,inactive: 110%,inactive: 115%,inactive: 98.6%,inactive: 113%,inactive: 95.1%,inactive: 122%,inactive: 112%,inactive: 114%,inactive: 106%,inactive: 101%,inactive: 110%
O=[As](O)(c1ccccc1)c1ccc(O)cc1,inactive: 95.3%,inactive: 106%,inactive: 129%,inactive: 88.1%,inactive: 95.5%,inactive: 90.9%,inactive: 84%,inactive: 104%,inactive: 96.8%,inactive: 125%,inactive: 111%,inactive: 101%,inactive: 108%,inactive: 108%,inactive: 67.2%,inactive: 110%,inactive: 101%,inactive: 88%,inactive: 52.7%,inactive: 99.4%
O=[N+]([O-])N=C1NCCN1,inactive: 106% and inactive: 96.5%,inactive: 102% and inactive: 94.3%,inactive: 127% and inactive: 77.3%,inactive: 106% and inactive: 87.8%,inactive: 108% and inactive: 105%,inactive: 84.7% and inactive: 80.2%,inactive: 100% and inactive: 88.7%,inactive: 102% and inactive: 98.3%,inactive: 109% and inactive: 108%,inactive: 106% and inactive: 107%,inactive: 102% and inactive: 104%,inactive: 89.3% and inactive: 112%,inactive: 126% and inactive: 64.3%,inactive: 120% and inactive: 100%,inactive: 102% and inactive: 106%,inactive: 100% and inactive: 112%,inactive: 105% and inactive: 114%,inactive: 112% and inactive: 95.7%,inactive: 103%,inactive: 109% and inactive: 101%
O=[N+]([O-])c1ccc(-c2cc([N+](=O)[O-])c(O)c([N+](=O)[O-])c2)cc1,inactive: 104% and inactive: 112%,inactive: 96.2%,inactive: 102%,inactive: 99% and inactive: 107%,inactive: 112% and inactive: 105%,inactive: 91.5%,inactive: 112% and inactive: 92.4%,inactive: 101% and inactive: 107%,inactive: 103% and inactive: 94.9%,inactive: 100% and inactive: 108%,inactive: 114% and inactive: 99.1%,inactive: 102% and inactive: 90.5%,inactive: 108%,inactive: 101% and inactive: 117%,inactive: 111% and inactive: 114%,inactive: 105% and inactive: 96.1%,inactive: 85.7% and inactive: 101%,inactive: 97.1% and inactive: 108%,inactive: 114% and inactive: 107%,inactive: 107% and inactive: 108%
CCOC(=O)Nc1ccc([As](=O)(O)O)c(O)c1,inactive: 105%,inactive: 106%,inactive: 99.8%,inactive: 112%,inactive: 105%,inactive: 97.9%,inactive: 102%,inactive: 106%,inactive: 103%,inactive: 104%,inactive: 110%,inactive: 94.6%,inactive: 111%,inactive: 101%,inactive: 135%,inactive: 103%,inactive: 105%,inactive: 90.8%,inactive: 113%,inactive: 107%
CC(C)OP(=S)(Cl)OC(C)C,inactive: 99.2%,inactive: 106%,inactive: 92.6%,inactive: 104%,inactive: 107%,inactive: 126%,inactive: 90%,inactive: 112%,inactive: 105%,inactive: 107%,inactive: 110%,inactive: 91.4%,inactive: 86.6%,inactive: 127%,inactive: 109%,inactive: 108%,inactive: 99.4%,inactive: 98.2%,inactive: 106%,inactive: 108%
CCc1cc(O)c([N+](=O)[O-])c(C)c1[N+](=O)[O-],inactive: 102%,inactive: 109%,inactive: 126%,inactive: 112%,inactive: 113%,inactive: 93.3%,inactive: 103%,inactive: 93.2%,inactive: 116%,inactive: 114%,inactive: 112%,inactive: 120%,inactive: 111%,inactive: 107%,inactive: 113%,inactive: 106%,inactive: 109%,inactive: 108%,inactive: 97.5%,inactive: 107%
CCN(CCCl)/N=N/c1nc2nc[nH]c(=O)c2[nH]1,inactive: 92.1%,inactive: 105%,inactive: 96.4%,inactive: 89.2%,inactive: 113%,inactive: 97.8%,inactive: 98.8%,inactive: 93.6%,inactive: 102%,inactive: 114%,inactive: 105%,inactive: 105%,inactive: 97.7%,inactive: 118%,inactive: 128%,inactive: 95.2%,inactive: 104%,inactive: 103%,inactive: 96.6%,inactive: 101%
CCOC(=O)N1CCN(CCCl)CC1,inactive: 103%,inactive: 103%,inactive: 103%,inactive: 97.1%,inactive: 110%,inactive: 86.4%,inactive: 96.6%,inactive: 107%,inactive: 99.7%,inactive: 102%,inactive: 110%,inactive: 107%,inactive: 108%,inactive: 111%,inactive: 105%,inactive: 109%,inactive: 96.1%,inactive: 97.9%,inactive: 109%,inactive: 99.1%
Clc1ccc(P(Cl)Cl)cc1,inactive: 104%,inactive: 108%,inactive: 105%,inactive: 111%,inactive: 109%,inactive: 64.6%,inactive: 96.4%,inactive: 93.5%,inactive: 109%,inactive: 118%,inactive: 114%,inactive: 99.9%,inactive: 111%,inactive: 89.7%,inactive: 112%,inactive: 112%,inactive: 113%,inactive: 93.7%,inactive: 98.5%,inactive: 108%

# From PubChem BioAssay (NCI)
